Experiments:
[1] = Water solubility (water content of plasticizer by Karl Fischer titration after mixing with water); type: physicochemical; conditions: Table 1; water uptake of plasticizer at room temperature
Description: Water Solubility 20 mL of plasticizer is taken in a beaker and mixed with equal volume of distilled water. The mixture is stirred vigorously at room temperature and allowed to settle in a separating funnel. The mixture forms an emulsion which takes approximately 24 hours to form separate layers of organic and aqueous phases. After 48 hours, the two layers are separated. The aqueous layer is drained and the organic layer containing plasticizer and some water is recovered. The organic layer contains water in dissolved form as well as in the fine emulsion form. This layer is centrifuged at 7000 rpm for one hour. This step separates water trapped in the plasticizer in dispersed form. The plasticizer is further analyzed for water content with the help of wet chemistry methods. Carl Fischer titration method is used to determine the water content in plasticizer.

[2] = type: physicochemical
Description: Solubility in PVC is determined according to American Society for Testing and Materials (“ASTM”) method D 3367-98. In addition, the epoxidized fatty acid alkyl ester can have an oxirane oxygen value of at least 3.5, or in the range of from 4.0 to 7.8, as determined by American Oil Chemists' Society (“AOCS”) method Cd 9-57. […] Water solubility of the epoxidized fatty acid alkyl ester is determined according to the procedures described in the Test Methods section, below. Solubility in PVC Measure solubility in PVC according to ASTM D 3367-98. Test parameters, such as the design of centrifuge tubes, soak temperature, soak time, drainage of plasticizer, and centrifuge speed to remove excess plasticizer, are optimized to be able to capture differences in plasticizer absorption and solubilities of different plasticizers in PVC. Centrifuge tubes with a 0.8 mm diameter hole at the bottom are used for the test. […] The plasticizer absorbed by PVC is measured from the weight gain of PVC (after accounting for weight gain due to plasticizer absorbed by cotton). The equilibrium plasticizer solubility is calculated by subtracting the void volume (found to be equal to amount of acetylated castor wax absorbed by PVC, see PCT Published Application WO/2011/041380) from the plasticizer absorption.

Water solubility (%) [1]	Solubility in PVC (g/100 g PVC) [2]	Substance
4.77%		epoxidized methyl linolenate [CS2, reference compound]
	223.6 g/100 g PVC	epoxidized methyl linolenate [CS4, reference compound]

Reference: patent US9850366B2, “Epdxidized fatty acid alkyl ester plasticizers and methods for making epdxidized fatty acid alkyl ester plasticizers” (Dow Global Technologies LLC, priority 2012, dated 2017)
